T1: CEACAM5 recombinant protein (human CEACAM5, Example 2) (human, UniProt P06731 35-685, limits assumed)
T1 construct: also called immobilized CEACAM5 recombinant protein
T1 sequence: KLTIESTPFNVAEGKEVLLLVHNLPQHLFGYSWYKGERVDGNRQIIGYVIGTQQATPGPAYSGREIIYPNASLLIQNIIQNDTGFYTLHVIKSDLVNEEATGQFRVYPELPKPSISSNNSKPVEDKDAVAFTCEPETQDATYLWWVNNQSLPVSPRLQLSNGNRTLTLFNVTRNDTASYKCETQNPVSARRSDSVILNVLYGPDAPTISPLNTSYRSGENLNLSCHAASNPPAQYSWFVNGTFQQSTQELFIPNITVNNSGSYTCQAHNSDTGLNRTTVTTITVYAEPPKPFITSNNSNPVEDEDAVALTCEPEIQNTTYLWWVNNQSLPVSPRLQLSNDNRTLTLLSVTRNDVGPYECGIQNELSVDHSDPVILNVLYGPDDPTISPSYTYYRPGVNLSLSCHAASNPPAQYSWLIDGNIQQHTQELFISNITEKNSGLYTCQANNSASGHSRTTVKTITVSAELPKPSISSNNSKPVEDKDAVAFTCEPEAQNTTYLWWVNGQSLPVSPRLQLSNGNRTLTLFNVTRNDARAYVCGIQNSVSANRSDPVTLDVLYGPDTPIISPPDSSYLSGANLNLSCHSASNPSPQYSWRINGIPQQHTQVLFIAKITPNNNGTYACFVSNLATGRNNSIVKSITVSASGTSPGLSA

T2: hCEACAM5 A2-B2 domains fragment (A2B2) with C-terminal polyhistidine tag (human, UniProt P06731 321-498)
T2 construct: also called A2B2 fragment of human CEACAM5; not shown: C-terminal polyhistidine tag
T2 sequence: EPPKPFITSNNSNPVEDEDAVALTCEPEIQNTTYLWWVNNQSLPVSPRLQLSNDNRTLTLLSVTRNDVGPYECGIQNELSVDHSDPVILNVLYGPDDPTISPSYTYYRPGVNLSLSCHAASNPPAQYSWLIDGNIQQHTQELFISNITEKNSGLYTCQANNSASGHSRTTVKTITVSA

T3: hCEACAM5 A3-B3 domains fragment (A3B3) with C-terminal polyhistidine tag (human, UniProt P06731 499-685)
T3 construct: also called A3B3 fragment of human CEACAM5; A2B3 (as printed once); not shown: C-terminal polyhistidine tag
T3 sequence: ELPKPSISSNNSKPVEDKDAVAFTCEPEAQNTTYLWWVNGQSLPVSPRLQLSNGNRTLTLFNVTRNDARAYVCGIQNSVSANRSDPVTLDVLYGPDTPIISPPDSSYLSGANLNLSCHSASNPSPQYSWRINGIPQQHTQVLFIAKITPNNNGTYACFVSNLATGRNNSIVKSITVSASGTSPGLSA

T4: Extracellular domain (ECD) of cynomolgus CEACAM5 with polyhistidine tag (Sino Biological, 90891-C08H) (cynomolgus monkey)
T4 construct: Bought protein; also called cCEACAM5 ECD; ECD of cyno CEACAM5; not shown: polyhistidine tag
T4 chain: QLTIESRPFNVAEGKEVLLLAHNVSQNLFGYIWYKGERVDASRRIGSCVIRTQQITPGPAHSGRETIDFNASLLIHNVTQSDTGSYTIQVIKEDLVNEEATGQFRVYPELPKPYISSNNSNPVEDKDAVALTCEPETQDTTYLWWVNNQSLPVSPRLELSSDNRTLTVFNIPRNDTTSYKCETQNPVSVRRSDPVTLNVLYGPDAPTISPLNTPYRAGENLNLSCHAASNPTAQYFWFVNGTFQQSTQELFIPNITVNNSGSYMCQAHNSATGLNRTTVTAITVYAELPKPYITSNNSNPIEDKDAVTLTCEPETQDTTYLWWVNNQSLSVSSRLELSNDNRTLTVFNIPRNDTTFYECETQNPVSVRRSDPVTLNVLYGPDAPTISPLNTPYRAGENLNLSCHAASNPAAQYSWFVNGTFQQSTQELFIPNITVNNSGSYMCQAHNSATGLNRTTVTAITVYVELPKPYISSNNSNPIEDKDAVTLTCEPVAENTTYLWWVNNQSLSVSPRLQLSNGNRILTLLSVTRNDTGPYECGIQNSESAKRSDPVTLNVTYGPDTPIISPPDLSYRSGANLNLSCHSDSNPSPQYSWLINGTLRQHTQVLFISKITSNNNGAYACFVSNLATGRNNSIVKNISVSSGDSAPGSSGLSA

T5: Human CEACAM6 on HEK293T cells (human, UniProt P40199 35-320)
T5 construct: Stably transfected HEK293T cells; also called hCEACAM6
T5 sequence: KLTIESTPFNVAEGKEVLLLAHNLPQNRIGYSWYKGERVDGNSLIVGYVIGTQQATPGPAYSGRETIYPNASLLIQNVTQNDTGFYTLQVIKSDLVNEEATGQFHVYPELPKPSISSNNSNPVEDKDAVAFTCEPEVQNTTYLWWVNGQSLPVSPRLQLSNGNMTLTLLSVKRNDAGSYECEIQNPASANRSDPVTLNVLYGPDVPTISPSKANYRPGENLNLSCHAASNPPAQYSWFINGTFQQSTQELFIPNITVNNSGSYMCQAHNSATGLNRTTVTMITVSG

T6: Cynomolgus monkey CEACAM5 on HEK293T cells (cynomolgus monkey)
T6 construct: Stably transfected HEK293T cells; also called cyCEACAM5; cyno CEACAM5
T6 chain: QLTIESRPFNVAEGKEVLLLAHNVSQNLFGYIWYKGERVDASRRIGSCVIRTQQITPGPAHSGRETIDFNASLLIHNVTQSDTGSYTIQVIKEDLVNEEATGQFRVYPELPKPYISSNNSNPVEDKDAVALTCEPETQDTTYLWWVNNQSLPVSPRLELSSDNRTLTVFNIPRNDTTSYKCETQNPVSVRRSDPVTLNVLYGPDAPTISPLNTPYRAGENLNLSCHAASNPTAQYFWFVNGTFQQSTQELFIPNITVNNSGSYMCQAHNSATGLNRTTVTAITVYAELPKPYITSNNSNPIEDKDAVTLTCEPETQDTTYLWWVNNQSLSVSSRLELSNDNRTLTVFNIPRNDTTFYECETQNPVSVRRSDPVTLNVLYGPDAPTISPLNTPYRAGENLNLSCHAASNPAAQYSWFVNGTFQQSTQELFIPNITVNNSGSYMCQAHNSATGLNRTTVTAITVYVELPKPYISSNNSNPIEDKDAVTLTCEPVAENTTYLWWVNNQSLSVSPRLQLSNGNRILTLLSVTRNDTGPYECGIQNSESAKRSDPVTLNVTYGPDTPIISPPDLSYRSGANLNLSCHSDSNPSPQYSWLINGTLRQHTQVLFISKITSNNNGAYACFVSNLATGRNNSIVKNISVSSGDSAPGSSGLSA

T7: Human CEACAM8 on HEK293T cells (human, UniProt P31997 35-320)
T7 construct: Stably transfected HEK293T cells; also called hCEACAM8
T7 sequence: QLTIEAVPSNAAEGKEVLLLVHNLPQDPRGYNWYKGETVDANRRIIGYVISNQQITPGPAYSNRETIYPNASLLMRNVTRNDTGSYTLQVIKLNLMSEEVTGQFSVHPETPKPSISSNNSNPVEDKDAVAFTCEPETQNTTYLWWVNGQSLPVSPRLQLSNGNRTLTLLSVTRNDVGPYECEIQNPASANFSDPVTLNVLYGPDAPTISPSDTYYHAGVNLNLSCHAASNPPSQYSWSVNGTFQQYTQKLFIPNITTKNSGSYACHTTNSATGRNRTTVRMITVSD

T8: Human CEACAM5 on cells (human, UniProt P06731 35-685)
T8 construct: also called hCEACAM5; CD66e
T8 sequence: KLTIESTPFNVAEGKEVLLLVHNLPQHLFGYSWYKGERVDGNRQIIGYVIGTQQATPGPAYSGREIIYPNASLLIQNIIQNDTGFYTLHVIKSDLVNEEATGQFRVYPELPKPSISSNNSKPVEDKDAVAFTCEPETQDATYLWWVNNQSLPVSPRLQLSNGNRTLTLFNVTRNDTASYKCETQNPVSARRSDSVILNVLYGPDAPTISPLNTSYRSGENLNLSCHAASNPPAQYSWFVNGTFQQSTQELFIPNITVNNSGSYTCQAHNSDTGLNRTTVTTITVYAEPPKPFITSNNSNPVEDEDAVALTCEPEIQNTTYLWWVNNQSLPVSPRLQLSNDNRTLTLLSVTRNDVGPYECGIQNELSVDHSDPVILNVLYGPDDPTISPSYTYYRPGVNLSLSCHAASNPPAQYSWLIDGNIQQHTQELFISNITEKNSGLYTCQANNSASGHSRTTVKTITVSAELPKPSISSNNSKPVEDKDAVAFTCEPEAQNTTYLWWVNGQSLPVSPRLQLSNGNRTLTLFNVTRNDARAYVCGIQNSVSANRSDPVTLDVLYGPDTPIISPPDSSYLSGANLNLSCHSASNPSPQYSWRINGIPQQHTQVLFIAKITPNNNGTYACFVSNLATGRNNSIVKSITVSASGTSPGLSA

T9: Human CEACAM7 on HEK293T cells (human, UniProt Q14002 36-242)
T9 construct: Stably transfected HEK293T cells; also called hCEACAM7
T9 sequence: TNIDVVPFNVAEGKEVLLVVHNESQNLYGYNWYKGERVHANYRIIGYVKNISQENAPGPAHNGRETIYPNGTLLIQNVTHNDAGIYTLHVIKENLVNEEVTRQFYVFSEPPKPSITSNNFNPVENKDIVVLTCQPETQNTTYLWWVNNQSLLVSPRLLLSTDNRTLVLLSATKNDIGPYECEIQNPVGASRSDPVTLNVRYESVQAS


Key:
[1] = biological target: T1, CEACAM5 recombinant protein (human …); assay: BLI (Octet HTX), monovalent affinity to recombinant human CEACAM5
[2] = biological target: T2, hCEACAM5 A2-B2 domains fragment (A2B2) …; assay: BLI (Octet HTX), monovalent and bivalent methods
Experimental: (§1) Then, biosensors were incubated in kinetic buffer to allow for antibody dissociation to occur (1000 seconds). Sensorgrams capturing the association and dissociation of antibody from recombinant protein were generated at 30° C. on an Octet HTX system (Fortebio). Reference biosensors with immobilized recombinant protein were measured in the absence of test article. Negative control biosensors without immobilized recombinant protein were assessed with antibodies present at 500 nm to verify the absence of nonspecific binding of the antibodies to the Ni-NTA biosensors themselves. Data for BLI (biolayer interferometry) kinetic experiments were processed and analyzed on Fortebio's Data Analysis HT software. all sensorgrams were processed with a y-axis alignment to an average of the last 5 seconds of the baseline and an inter-step correction aligned to the dissociation step, the affinity constants were calculated by globally fitting the sensorgrams with a 1:1 langmuir adsorption isotherm model (Rmax unlinked) after a reference subtraction of the probe-loaded sensor in absence of analyte.
(§2) For testing of antibody binding to the A2B2 and A3B3 fragments of human CEACAM5 with the monovalent method, the tested antibodies were diluted in immobilization buffer (0.1% BSA+0.02% Tween20, 1×PBS pH 7.4) and loaded onto AHC (anti-human fc) biosensors (Fortebio) at 4 μg/ml for 600 seconds. After baselining in immobilization buffer, then kinetic buffer (0.5% BSA, 0.2% Tween20, 1×PBS pH 7.4), serial dilution of CEACAM5 recombinant proteins containing a c-terminal polyhistidine tag (5000 nm) in kinetic buffer were allowed to associate with antibody immobilized on biosensors until the recombinant protein reached equilibrium with antibody (300 seconds). Then, biosensors were incubated in kinetic buffer to allow for recombinant protein dissociation to occur (1000 seconds). […] Reference biosensors with immobilized recombinant protein were measured in the absence of test article. Data for BLI (biolayer interferometry) kinetic experiments were processed and analyzed on Fortebio's Data Analysis HT software.

[3] = biological target: T3, hCEACAM5 A3-B3 domains fragment (A3B3) …; assay: BLI (Octet HTX), monovalent and bivalent methods
Experimental: as §1, §2

[4] = biological target: T4, Extracellular domain (ECD) of …; assay: BLI (Octet HTX), monovalent and bivalent methods
Experimental: as §1, §2

[5] = biological target: T5, Human CEACAM6 on HEK293T cells; assay: flow cytometry on HEK293T cells expressing the target; background set by a non-binding antibody control
From the text: (§3) HEK293T cells were stably transfected to express human CEACAM1, cynomolgus CEACAM5, human CEACAM5, human CEACAM6, human CEACAM7, or human CEACAM8. Surface expression was confirmed by positive staining by multiple pan-CEACAM antibody clones by flow cytometry. […] The results are shown as fold signal over background, with background set by a non-binding antibody control in (Table 2).

[6] = biological target: T6, Cynomolgus monkey CEACAM5 on HEK293T …; assay: as above
From the text: as §3

[7] = biological target: T7, Human CEACAM8 on HEK293T cells; assay: as above
From the text: as §3

[8] = biological target: T8, Human CEACAM5 on cells; assay: as above
From the text: as §3

[9] = biological target: T9, Human CEACAM7 on HEK293T cells; assay: as above
From the text: as §3

[10] = biological target: T5, Human CEACAM6 on HEK293T cells; assay: flow cytometry on stably transfected HEK293T cells
From the text: as §3

[11] = biological target: T6, Cynomolgus monkey CEACAM5 on HEK293T …; assay: flow cytometry on stably transfected HEK293T cells
From the text: as §3

[12] = biological target: T7, Human CEACAM8 on HEK293T cells; assay: flow cytometry on stably transfected HEK293T cells
From the text: as §3

[13] = biological target: T9, Human CEACAM7 on HEK293T cells; assay: flow cytometry on stably transfected HEK293T cells
From the text: as §3

Kd [1] [nM] | binding result [2] | binding result [3] | binding result [4] | fold signal over background [5] [fold over background] | fold signal over background [6] [fold over background] | fold signal over background [7] [fold over background] | fold signal over background [8] [fold over background] | fold signal over background [9] [fold over background] | binding result [10] | binding result [11] | binding result [12] | binding result [13] | Binder
3 | no binding | no binding | no binding (tested: up to 500 nm) | 0.8 | 1 | 0.5 | 18.7 | 1 | no binding | no binding | no binding | no binding | SG-105.2E4 antibody (antibody, human IgG1, kappa) heavy: not shown light: EIVLTQSPGTLSLSPGERATLSCRASQSISSIYLAWYQHKPGQAPMLLIYGASSRATGIPDRFSGSGSGTDFTLTISRLEPEDFAVYYCQQFGSSPWTFGQGTKLEIKRTVAAPSVFIFPPSDEQLKSGTASVVCLLNNFYPREAKVQWKVDNALQSGNSQESVTEQDSKDSTYSLSSTLTLSKADYEKHKVYACEVTHQGLSSPVTKSFNRGEC
3.6 | – | – | – | – | – | – | – | – | – | – | – | – | SG-105.2E4 EC4 antibody (antibody, human IgG1) heavy: not shown light: EIVLTQSPGTLSLSPGERATLSCRASQSISSIYLAWYQHKPGQAPMLLIYGASSRATGIPDRFSGSGSGTDFTLTISRLEPEDFAVYYCQQFGSSPWTFGQGTKLEIKRTVAAPCVFIFPPSDEQLKSGTASVVCLLNNFYPREAKVQWKVDNALQSGNSQESVTEQDSKDSTYSLSSTLTLSKADYEKHKVYACEVTHQGLSSPVTKSFNRGEC
